According to US20030092613A1, “Alpha7 nicotinic receptor peptides as ligands for beta amyloid peptides” (priority 2000, published 2003):
Like-named read-outs stand apart in the source and are kept apart here.

Legend:
[1] = system: guinea pig hippocampal synaptosomes; assay: ACh release from guinea pig hippocampal synaptosomes (β-amyloid inhibition of K+-evoked release); type: cell-based
Protocol: ACh release from guinea pig hippocampal synaptosomes: Synaptosomes (P2 fraction) were prepared from guinea pig hippocampus as described previously and re-suspended in a Krebs-Ringer solution containing 0.1 μM [methyl-^3H]choline chloride (NEN, Boston, Mass.) and incubated at 37° C. for 30 min. Unincorporated choline was removed by washing and the synaptosomes were resuspended in Krebs-Ringer solution to 10 mg/mL. ACh release from synaptosomes was measured using the parallel superfusion chambers (Hugo Sachs Elektronik, March-Hugstetten, Germany) according to that described earlier (Wang, H. -Y. et al Neuropeptides 1999; 33, 197-205). The synaptosomal suspension (250 μL) was placed in each of the superfision chambers between two circular pieces of GF/B filters (Whatman, England). The chambers were perfused with oxygenated Krebs-Ringer containing 1 μM physostigmine hemisulfate at a flow rate of 0.5 mL/min. The onset of superfusion was defined as time zero (to). Starting 30 min after t0, fractions of the effluent were collected 12 times at 10-minute intervals.
The tissues were treated with peptides and ACh release was evoked by superfusing with 65 mM K^+-Krebs-Ringer (made by equimolar replacement of NaCl with KCl) for 30 seconds. […] Twenty minutes prior to K^+ stimulation (S2, S3 or S4), tissues were superfused with Krebs-Ringer solution that contained various concentrations of compound or vehicle (control) for 30 min. After perfusion, 5 mL of Scintsafe PlusTM 50% (Fisher Scientific) was added to the synaptosomes (on filter) and aliquots of the superfusates (0.5 mL). The amount of ^3H in the superfusate samples was measured by liquid scintillation spectrometry.
Tritiurn efflux into the superfusate was calculated as the fraction of ^3H content in the synaptosomes at the onset of the respective collection period. To calculate the amount of ^3H present in the superfusate after K^+ stimulation, the estimated basal efflux (the average of the 10-minute fractions immediately before and after each stimulation) was subtracted from the total efflux during the 10-minute fraction which began with the 30-second second K^+ stimulus. This difference was then used to calculate the percent of K^+-evoked release of ACh.
Data are expressed as the mean fractional ^3H release±S.E.M. Statistical differences between treatments were tested by Student's t test, two-tailed or the two-factor ANOVA as appropriate. Individual differences in the dose-response curve were evaluated by the Newman-Keuls multiple comparison test.

[2] = system: Biotin-huma7-5; design: species or system human; conditions: read-out: IC50, 125I-α-BTX binding to Biotin-huma7-5
[3] = attenuation of β-amyloid's inhibition on potassium-evoked ACh release
[4] = attenuation of β-amyloid's inhibition on potassium-evoked ACh release, 1 nM β-amyloid1-42, read-out: Inh ACh rel IC50

SMILES	ACh rel % Inh @ 100 μM [1, 3] [%]	IC50 ([1]; 3 h) [nM]	IC50 [2] [µM]	IC50 [1, 4] [nM]
CC(=O)N[C@@H](Cc1ccc(O)cc1)C(=O)N[C@@H](CCC(=O)O)C(=O)N[C@@H](CS)C(=O)N[C@@H](CS)C(N)=O [compound 20]	62	< 10000		
CC[C@H](C)[C@H](NC(C)=O)C(=O)N1CCC[C@H]1C(=O)NCC(=O)N[C@@H](CCCCN)C(=O)N[C@@H](CCCNC(=N)N)C(=O)N[C@@H](CO)C(=O)N[C@@H](CCC(=O)O)C(=O)N[C@@H](CCCNC(=N)N)C(=O)N[C@@H](Cc1ccccc1)C(=O)N[C@@H](Cc1ccc(O)cc1)C(=O)N[C@@H](CCC(=O)O)C(=O)N[C@@H](CS)C(=O)N[C@@H](CS)C(=O)N[C@@H](CCCCN)C(=O)N[C@@H](CCC(=O)O)C(=O)N1CCC[C@H]1C(=O)N[C@@H](Cc1ccc(O)cc1)C(=O)N1CCC[C@H]1C(N)=O [compound 5]	79	710		
CC(=O)N[C@@H](C)C(=O)N[C@@H](CCC(=O)O)C(=O)N[C@@H](CCCNC(=N)N)C(=O)N[C@@H](Cc1ccccc1)C(=O)N[C@@H](Cc1ccc(O)cc1)C(=O)N[C@@H](CCC(=O)O)C(=O)N[C@@H](CS)C(=O)N[C@@H](CS)C(=O)N[C@@H](CCCCN)C(=O)N[C@@H](CCC(=O)O)C(=O)N1CCC[C@H]1C(N)=O [compound 10]	15	> 10000	15	
CC(=O)N[C@@H](CO)C(=O)N[C@@H](CCC(=O)O)C(=O)N[C@@H](CCCNC(=N)N)C(=O)N[C@@H](Cc1ccccc1)C(=O)N[C@@H](Cc1ccc(O)cc1)C(=O)N[C@@H](CCC(=O)O)C(=O)N[C@@H](C)C(=O)N[C@@H](CS)C(=O)N[C@@H](CCCCN)C(=O)N[C@@H](CCC(=O)O)C(=O)N1CCC[C@H]1C(N)=O [compound 15]	19	> 10000	> 100	
CSCC[C@H](NC(=O)[C@@H](NC(=O)[C@@H](NC(=O)[C@@H](NC(=O)[C@H](Cc1ccccc1)NC(=O)[C@@H](NC(=O)[C@@H](NC(=O)[C@H](CC(=O)O)NC(=O)[C@@H]1CCCN1C(=O)[C@H](Cc1ccc(O)cc1)NC(=O)[C@@H]1CCCN1C(=O)[C@H](CCC(=O)O)NC(=O)[C@H](CCCCN)NC(=O)[C@H](CS)NC(=O)[C@H](CS)NC(=O)[C@H](CCC(=O)O)NC(=O)[C@H](Cc1ccc(O)cc1)NC(C)=O)C(C)C)[C@@H](C)O)[C@@H](C)O)C(C)C)[C@@H](C)O)C(=O)N[C@@H](CCCNC(=N)N)C(N)=O [compound 8]	65	1000		
CC(=O)N[C@@H](Cc1c[nH]cn1)C(=O)N[C@@H](CO)C(=O)N[C@H](C(=O)N[C@H](C(=O)N[C@@H](Cc1ccc(O)cc1)C(=O)N[C@@H](CO)C(=O)N[C@@H](CS)C(=O)N[C@@H](CS)C(=O)N1CCC[C@H]1C(=O)N[C@@H](CC(=O)O)C(=O)N[C@H](C(N)=O)[C@@H](C)O)[C@@H](C)O)C(C)C [compound 21]	10			> 10000
CC[C@H](C)[C@H](NC(C)=O)C(=O)N1CCC[C@H]1C(=O)NCC(=O)N[C@@H](CCCCN)C(=O)N[C@@H](CCCNC(=N)N)C(=O)N[C@@H](CO)C(=O)N[C@@H](CCC(=O)O)C(=O)N[C@@H](CCCNC(=N)N)C(=O)N[C@@H](Cc1ccccc1)C(=O)N[C@@H](Cc1ccc(O)cc1)C(=O)N[C@@H](CCC(=O)O)C(=O)N[C@@H](CS)C(=O)N[C@@H](CS)C(=O)N[C@@H](CCCCN)C(=O)N[C@@H](CCC(=O)O)C(=O)N1CCC[C@H]1C(=O)N[C@@H](Cc1ccc(O)cc1)C(=O)N1CCC[C@H]1C(=O)N[C@@H](CC(=O)O)C(=O)N[C@H](C(N)=O)C(C)C [compound 6]	73	626	0.2	
CC(=O)N[C@@H](CO)C(=O)N[C@@H](CCC(=O)O)C(=O)N[C@@H](CCCNC(=N)N)C(=O)N[C@@H](Cc1ccccc1)C(=O)N[C@@H](Cc1ccc(O)cc1)C(=O)N[C@@H](CCC(=O)O)C(=O)N[C@@H](CS)C(=O)N[C@@H](C)C(=O)N[C@@H](CCCCN)C(=O)N[C@@H](CCC(=O)O)C(=O)N1CCC[C@H]1C(N)=O [compound 2]	85	165	> 100	
CC(=O)N[C@@H](Cc1ccccc1)C(=O)N[C@@H](Cc1ccc(O)cc1)C(=O)N[C@@H](CCC(=O)O)C(=O)N[C@@H](CS)C(=O)O [compound 26]	54			
CC[C@H](C)[C@H](NC(=O)[C@H](CCC(=O)O)NC(=O)[C@H](C)NC(=O)[C@@H]1CSSC[C@H](NC(=O)[C@H](CCC(=O)O)NC(=O)[C@H](Cc2ccc(O)cc2)NC(=O)[C@H](CCCCN)NC(=O)[C@H](CCCNC(=N)N)NC(=O)[C@@H](NC(=O)[C@H](CC(N)=O)NC(C)=O)[C@@H](C)O)C(=O)N1)C(N)=O [compound 23]	16			
CC[C@H](C)[C@H](NC(=O)[C@H](CCC(=O)O)NC(=O)[C@H](C)NC(=O)[C@H](CS)NC(=O)[C@H](CS)NC(=O)[C@H](CCC(=O)O)NC(=O)[C@H](Cc1ccc(O)cc1)NC(=O)[C@H](CCCCN)NC(=O)[C@H](CCCNC(=N)N)NC(=O)[C@@H](NC(=O)[C@H](CC(N)=O)NC(C)=O)[C@@H](C)O)C(N)=O [compound 22]	16			
CC(=O)N[C@@H](CO)C(=O)N[C@@H](CCC(=O)O)C(=O)N[C@@H](CCCNC(=N)N)C(=O)N[C@@H](Cc1ccccc1)C(=O)N[C@@H](Cc1ccc(O)cc1)C(=O)N[C@@H](C)C(=O)N[C@@H](CS)C(=O)N[C@@H](CS)C(=O)N[C@@H](CCCCN)C(=O)N[C@@H](CCC(=O)O)C(=O)N1CCC[C@H]1C(N)=O [compound 14]	14	> 10000	9.5	
CC(=O)N[C@@H](CO)C(=O)N[C@@H](CCC(=O)O)C(=O)N[C@@H](CCCNC(=N)N)C(=O)N[C@@H](Cc1ccccc1)C(=O)N[C@@H](Cc1ccc(O)cc1)C(=O)N[C@@H](CCC(=O)O)C(=O)N[C@@H](CS)C(=O)N[C@@H](CS)C(=O)N[C@@H](C)C(=O)N[C@@H](CCC(=O)O)C(=O)N1CCC[C@H]1C(N)=O [compound 16]	19	> 10000	1.3	
CC[C@H](C)[C@H](NC(=O)[C@H](CC(=O)O)NC(=O)[C@@H]1CCCN1C(=O)[C@H](Cc1ccc(O)cc1)NC(=O)[C@@H](NC(=O)[C@H](CCC(=O)O)NC(=O)[C@H](C)NC(=O)[C@H](CS)NC(=O)[C@H](CS)NC(=O)[C@H](CCC(=O)O)NC(=O)[C@H](Cc1ccc(O)cc1)NC(=O)[C@H](CCCCN)NC(=O)[C@H](CCCNC(=N)N)NC(=O)[C@@H](NC(=O)[C@H](CC(N)=O)NC(=O)[C@H](Cc1ccc(O)cc1)NC(=O)[C@@H](NC(=O)CNC(=O)[C@@H](NC(=O)[C@H](C)NC(C)=O)C(C)C)[C@@H](C)O)[C@@H](C)O)[C@@H](C)CC)C(N)=O [compound 24]	15			> 10000
CC[C@H](C)[C@H](NC(=O)CNC(C)=O)C(=O)N1CCC[C@H]1C(=O)NCC(=O)N[C@@H](CCCCN)C(=O)N[C@@H](CCCNC(=N)N)C(=O)N[C@@H](CO)C(=O)N[C@@H](CCC(=O)O)C(=O)N[C@@H](CCCNC(=N)N)C(=O)N[C@@H](Cc1ccccc1)C(=O)N[C@@H](Cc1ccc(O)cc1)C(=O)N[C@@H](CCC(=O)O)C(=O)N[C@@H](CS)C(=O)N[C@@H](CS)C(=O)N[C@@H](CCCCN)C(N)=O [compound 4]	73	1210		
N=C(N)NCCC[C@H](NC(=O)[C@H](CCC(=O)O)NC(=O)[C@@H](N)CO)C(=O)N[C@@H](Cc1ccccc1)C(=O)N[C@@H](Cc1ccc(O)cc1)C(=O)N[C@@H](CCC(=O)O)C(=O)N[C@@H](CS)C(=O)N[C@@H](CS)C(=O)N[C@@H](CCCCN)C(=O)N[C@@H](CCC(=O)O)C(=O)N1CCC[C@H]1C(=O)O [compound 19]	24	> 10000		
